The numbers were not newly measured in patent US6359015B1, “Method for antagonizing inhibition effects of alcohol on cell adhesion” (The United States of America as represented by the …, priority 2000, dated 2002), which cites them from elsewhere.

The conditions of the data set: published or calculated from molecular weight and density at 20° C.; cited from earlier work.

Consider 1-butanol, for which the Vm molar volume is 92 mL/mol.
